Protein sequences, listed by entry. Tags and fused reporters are not part of them. Residues count along the entry.
UniProt P29452, 123-296 limits assumed: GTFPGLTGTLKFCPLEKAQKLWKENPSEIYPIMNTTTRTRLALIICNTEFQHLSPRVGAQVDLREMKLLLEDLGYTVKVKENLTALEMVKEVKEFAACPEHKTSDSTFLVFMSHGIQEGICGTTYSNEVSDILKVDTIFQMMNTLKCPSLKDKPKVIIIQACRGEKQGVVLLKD
UniProt P29452, 315-402 limits assumed: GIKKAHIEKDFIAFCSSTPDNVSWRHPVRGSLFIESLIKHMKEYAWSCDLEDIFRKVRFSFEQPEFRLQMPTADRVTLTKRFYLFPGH
UniProt Q14790, 217-374 limits assumed: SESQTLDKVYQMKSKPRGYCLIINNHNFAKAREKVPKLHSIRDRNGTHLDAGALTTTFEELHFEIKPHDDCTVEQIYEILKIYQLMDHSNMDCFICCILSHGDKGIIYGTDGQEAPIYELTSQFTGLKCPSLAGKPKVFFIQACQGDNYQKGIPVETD
UniProt Q14790, 385-479 limits assumed: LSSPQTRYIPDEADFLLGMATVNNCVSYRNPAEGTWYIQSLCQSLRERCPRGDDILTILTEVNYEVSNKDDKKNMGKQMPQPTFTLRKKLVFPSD
UniProt P42574, 29-175 limits assumed: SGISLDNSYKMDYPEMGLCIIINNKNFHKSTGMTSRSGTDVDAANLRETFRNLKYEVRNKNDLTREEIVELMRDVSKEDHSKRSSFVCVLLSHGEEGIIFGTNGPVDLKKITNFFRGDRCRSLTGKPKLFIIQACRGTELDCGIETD
UniProt P42574, 176-277 limits assumed: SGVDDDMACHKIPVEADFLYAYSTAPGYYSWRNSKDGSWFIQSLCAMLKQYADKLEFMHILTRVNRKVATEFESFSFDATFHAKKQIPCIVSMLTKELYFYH
UniProt P55212, 24-179 limits assumed: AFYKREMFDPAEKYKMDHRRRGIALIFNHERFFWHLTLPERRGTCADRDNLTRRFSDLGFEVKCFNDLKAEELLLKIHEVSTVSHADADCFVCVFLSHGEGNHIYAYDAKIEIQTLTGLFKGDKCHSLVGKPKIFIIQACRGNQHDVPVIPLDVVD
UniProt P55212, 194-293 limits assumed: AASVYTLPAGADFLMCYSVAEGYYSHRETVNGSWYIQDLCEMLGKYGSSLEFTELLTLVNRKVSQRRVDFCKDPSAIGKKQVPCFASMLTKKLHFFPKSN

In patent US7183260B2, “C-terminal modified oxamyl dipeptides as inhibitors of the ICE/ced-3 family of cysteine proteases” (Idun Pharmaceuticals, Inc., priority 1998, dated 2007):

Tests used:
Type in all cases: biochemical
mICE = mICE (Mus musculus, UniProt P29452); test: Dissociation constant Ki and irreversible rate constant k3 for irreversible inhibitors (ICE)
MCH-5 = MCH-5 (Homo sapiens, UniProt Q14790); test: Dissociation constant Ki and irreversible rate constant k3 for irreversible inhibitors (Mch5)
CPP32 = CPP32 (Homo sapiens, UniProt P42574); test: Dissociation constant Ki and irreversible rate constant k3 for irreversible inhibitors (CPP32)
MCH-2 = MCH-2 (Homo sapiens, UniProt P55212); test: Dissociation constant Ki and irreversible rate constant k3 for irreversible inhibitors (Mch2)

SMILES: C[C@H](NC(=O)C(=O)Nc1cccc2cc3ccccc3cc12)C(=O)N[C@@H](CC(=O)O)C(=O)COC(=O)c1c(Cl)cccc1Cl
- mICE k3/Ki (mICE): 126,000 moles^−1 seconds^−1
- Ki (mICE; read-out: mICE Ki): 108 nM
- MCH-5 k3/Ki (MCH-5): 92,600 moles^−1 seconds^−1
- Ki (MCH-5; read-out: MCH-5 Ki): 25 nM
- CPP32 k3/Ki (CPP32): 165,000 moles^−1 seconds^−1
- Ki (CPP32; read-out: CPP32 Ki): 50 nM
- MCH-2 k3/Ki (MCH-2): 143,000 moles^−1 seconds^−1
- Ki (MCH-2; read-out: MCH-2 Ki): 22 nM
